Test results as given in PubChem BioAssay AID1662 (Broad Institute, 2009).
The list shows a part of the results, in another mix than the full data. The source made the active and inactive calls.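 How the source made its calls: active means mean replicate score, as percent of positive control median, at least 50; inconclusive means mean below 50 but one replicate at or above 50; inactive means mean and every replicate below 50.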

Test: kanamycin survival loss of SKKanGAS strain – BacTiter-Glo luminescence, streptokinase expression inhibitor project, primary screen (AID 1662);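 further: strain carries kanamycin resistance gene driven by streptokinase promoter and grows in 40 µg/ml kanamycin; loss of luminescence reflects streptokinase promoter inhibition or plain growth inhibition; 0% = median of DMSO wells and 100% = positive control at its reference dose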
Details: S. pyogenes SKKanGAS, kanamycin growth, 6 h, at 7.5 µM, stronger effect = higher value

Which inhibition does the source give for `CN(C)C(=N)N=C(N)N` here?
The inhibition was active: 71%.
